Measurements taken from US7495109B2, “Nociceptin analogs” (dated 2009).
pKi: −log10 of the molar value.

Amino acid sequences for entries named in this document (tags omitted).
UniProt P41146, whole entry: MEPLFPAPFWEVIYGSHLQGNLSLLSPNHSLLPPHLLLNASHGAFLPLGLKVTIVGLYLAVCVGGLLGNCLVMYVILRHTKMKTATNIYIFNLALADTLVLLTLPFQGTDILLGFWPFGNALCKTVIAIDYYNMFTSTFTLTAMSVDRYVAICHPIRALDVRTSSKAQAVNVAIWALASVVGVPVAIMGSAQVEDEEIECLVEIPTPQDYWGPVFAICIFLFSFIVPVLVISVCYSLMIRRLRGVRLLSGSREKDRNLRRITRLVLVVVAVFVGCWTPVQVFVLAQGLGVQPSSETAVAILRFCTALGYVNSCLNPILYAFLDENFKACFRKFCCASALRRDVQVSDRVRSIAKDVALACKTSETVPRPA
UniProt P35372, whole entry: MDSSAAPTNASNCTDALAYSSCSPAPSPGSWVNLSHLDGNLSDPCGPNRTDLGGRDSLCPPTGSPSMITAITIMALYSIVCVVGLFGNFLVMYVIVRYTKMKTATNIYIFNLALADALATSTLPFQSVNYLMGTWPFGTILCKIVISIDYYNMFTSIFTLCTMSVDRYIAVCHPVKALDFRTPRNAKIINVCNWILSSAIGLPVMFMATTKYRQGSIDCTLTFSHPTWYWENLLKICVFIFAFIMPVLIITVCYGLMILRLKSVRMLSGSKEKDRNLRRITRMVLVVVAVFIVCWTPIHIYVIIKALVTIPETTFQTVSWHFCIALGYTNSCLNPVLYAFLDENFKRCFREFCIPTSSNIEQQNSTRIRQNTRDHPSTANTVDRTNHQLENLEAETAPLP

Key:
[1] = molecular target: human opioid receptor-like receptor (ORL-1) (Homo sapiens, UniProt P41146); experiment: Nociceptin affinity at the ORL1 receptor ([35S]GTPgS binding, HEK-293 membranes); conditions: read-out: Nociceptin Affinity calc Ki; Table 2; membranes from recombinant HEK-293 cells expressing human ORL-1
Experimental: Nociceptin affinity at the ORL1 receptor for preferred compounds was obtained using the following assay:
Membranes from recombinant HEK-293 cells expressing the human opioid receptor-like receptor (ORL-1) (Receptor Biology) were prepared by lysing cells in ice-cold hypotonic buffer (2.5 mM MgCl2, 50 mM HEPES, pH 7.4) (10 ml/10 cm dish) followed by homogenization with a tissue grinder/teflon pestle. Membranes were collected by centrifugation at 30,000×g for 15 min at 4° C. and pellets resuspended in hypotonic buffer to a final concentration of 1-3 mg/ml. Protein concentrations were determined using the BioRad protein assay reagent with bovine serum albumen as standard. Aliquots of the ORL-1 receptor membranes were stored at −80° C.
(§1) Functional SGTPgS binding assays were conducted as follows. ORL-1 membrane solution was prepared by sequentially adding final concentrations of 0.066 mg/ml ORL-1 membrane protein, […], […] and 0.20 nM [^35S]GTPgS to binding buffer (100 mM NaCl, 10 mM MgCl2, 20 mM HEPES, pH 7.4) on ice. The prepared membrane solution ([…]) was transferred to 96-shallow well polypropylene plates containing […] of 20× concentrated stock solutions of agonist prepared in DMSO. Plates were incubated for 30 min at room temperature with shaking. Reactions were terminated by rapid filtration onto 96-well Unifilter GF/B filter plates (Packard) using a 96-well tissue harvester (Brandel) and followed by three filtration washes with 200 ml ice-cold binding buffer (10 mM NaH2PO4, 10 mM Na2HPO4, pH 7.4). Filter plates were subsequently dried at 50° C. for 2-3 hours. Fifty ml/well scintillation cocktail (BetaScint; Wallac) was added and plates were counted in a Packard Top-Count for 1 min/well.
Data was analyzed using the curve fitting functions in GraphPad PRISMÔ, v.
as §1, with “well-polypropylene” for “well polypropylene”

Mu opioid receptor = Mu opioid receptor (Homo sapiens, UniProt P35372); experiment: Affinity at the μ receptor ([35S]GTPγS binding, membranes); conditions: read-out: Mu Receptor Affinity calc Ki; Table 5; mu opioid receptor membrane solution
Experimental: Affinity at the μ receptor for compounds was obtained according to the following assay:
Mu opioid receptor membrane solution was prepared by sequentially adding final concentrations of 0.075 μg/μl of the desired membrane protein, 10 μg/ml saponin, 3 μM GDP and 0.20 nM [^35S]GTPγS to binding buffer (100 mM NaCl, 10 mM MgCl2, 20 mM HEPES, pH 7.4) on ice. The prepared membrane solution (190 μl/well) was transferred to 96-shallow well polypropylene plates containing 10 μl of 20× concentrated stock solutions of agonist prepared in DMSO. Plates were incubated for 30 min at room temperature with shaking. Reactions were terminated by rapid filtration onto 96-well Unifilter GF/B filter plates (Packard) using a 96-well tissue harvester (Brandel) and followed by three filtration washes with 200 μl ice-cold binding buffer (10 mM NaH2PO4, 10 mMNa2HPO4, pH 7.4). Filter plates were subsequently dried at 50° C. for 2-3 hours. Fifty μl/well scintillation cocktail (MicroScint20, Packard) was added and plates were counted in a Packard Top-Count for 1 min/well.
Data were analyzed using the curve fitting functions in GraphPad PRISM™, v.

| SMILES | pKi [1] | pKi (Mu opioid receptor) |
| --- | --- | --- |
| CCC1C(=O)N(C2CCN(C3CCc4ccccc4C3)CC2)c2ccccc21 (centres unmarked) | 6.91 | – |
| O=C1Cc2ccccc2N1C1CCN(CC2CCCCCCC2)CC1 | 7.27 | – |
| CCC1C(=O)N(C2CCN(C3CCC(C(C)C)CC3)CC2)c2ccccc21 (centres unmarked) | 9.07 | – |
| O=C1Cc2ccccc2N1C1CCN(CCC(c2ccccc2)c2ccccc2)CC1 | 7.90 | – |
| CC=C1C(=O)N(C2CCN(C3CCc4ccccc4C3)CC2)c2ccccc21 (centres unmarked) | 7.78 | 7.63 |
| CC=C1C(=O)N(C2CCN(CCC(c3ccccc3)c3ccccc3)CC2)c2ccccc21 | 7.00 | 7.62 |
